Results: patent publication US20260306421A1, “SYSTEMS AND METHODS FOR TRANSDERMAN PATCH DELIVERY” (VITAMAX PATCH WHOLESALER LLC, priority 2022, published 2026)

Tests used:
[1] = Solubility of iron chloride hexahydrate and iron complexes (visual / assayed); assay type: physicochemical
Protocol: Due to the high number of test samples (6 complexes plus the starting material, iron chloride hexahydrate) a visual solubility screen was used to screen the solubility in a range of solvents. […] Quantitative determination was performed by either incubating the complex in excess in the solvent using a shaking 37° C. water bath for 48 h or sonicating it for 2 hours at 40° C. or leaving overnight on a 50° C. hot plate. Once incubation period was completed, the exact solubility in a particular solvent was assayed (using the iron assay) after centrifugation (i.e. assay iron content in the supernatant using the Ferrozine® assay).

[2] = Visual skin damage / necrosis after iron permeation study; conditions: after 24 h permeation study, porcine skin
Source text: On the day of the experiment, the skin was defrosted. For the full thickness studies, the subcutaneous fat removed (2.5 mm thick) and for the dermatomes skin studies the tissued was dermatomed to a 1 mm thickness. The tissue was cut into the appropriate size sections (2.19±0.21 cm^2) and mounted between donor and receiver compartments of Franz diffusion cells with the SC facing the donor compartment. Each cell was sealed using parafilm and 12 mm magnetic stir bars were placed into the receiver compartment. The receiver compartment was filled with the desired receiver solution and the Franz cells were placed in a stirring water bath at 37° C. Cells were allowed to equilibrate for 30 min after which the receiver fluid using was mixed using a syringe and the “zero hour” sample was withdrawn from the arm and compensate with the same volume of fresh pre-warmed solution. Following zero-hour sampling, the donor solution was placed in the donor compartment and covered with parafilm. Samples were withdrawn and compensated with fresh receiver solution at set time intervals for a 24 h duration. The iron in each sample was quantified using the method specified in Section 2.2.2.1. […]

| Substance | visual solubility of complex ([1]; made at pH 4 and 7, PG, PEG4000 and Transcutul) [mg/mL] | Solubility of complex (visual) ([1]; Glycerol) [mg/mL Iron oleate*] | Solubility of complex ([1]; Liquid Paraffin) [mg/mL Iron oleate] | Solubility, equivalent elemental iron ([1]; Liquid Paraffin) | Solubility of complex ([1]; Miglyol 810N) [mg/mL Iron oleate] | Solubility, equivalent elemental iron ([1]; Miglyol 810N) | Solubility of complex (visual) ([1]; PEG400) [mg/mL Iron oleate*] | Solubility of complex (visual) ([1]; PG) [mg/mL Iron oleate*] | Solubility of complex (visual) ([1]; Transcutul) [mg/mL Iron oleate*] | Solubility of complex (visual) ([1]; Triaceten) [mg/mL Iron oleate*] | skin damage / necrosis [2] |
| --- | --- | --- | --- | --- | --- | --- | --- | --- | --- | --- | --- |
| iron hexanoate | < 20 | – | – | – | – | – | – | – | – | – | – |
| iron oleate | – | <8 | 680 | Equivalent to 41 mg/mL elemental iron | 200 | Equivalent to 12.5 mg/mL elemental iron | <8 | <8 | <8 | <8 | no observed skin damage |
